The numbers were not newly measured in patent US20240075049A1 (priority 2020, published 2024), which cites them from elsewhere.

For this series the following is noted: in both animals and humans; binds to or is absorbed by adipose tissue; cited from earlier work.

On to ivermectin, for which the lipophilicity result is on record as “highly lipophilic”.
